In publication PMC5876397, “An advanced human in vitro co-culture model for translocation studies across the placental barrier” (Scientific Reports, 2018):

Experiments:
[1] = system: BeWo b30 / HPEC-A2 co-culture
[2] = system: BeWo b30 monolayer
[3] = system: BeWo cells; conditions: cited from earlier work
[4] = system: HPEC-A2 monolayer

FITC-dextran
Transport, basolateral amount of the initial dose (ID) [1]: 0.0%
Transport, basolateral amount of the initial dose (ID) [2]: 0.0%
Viability of BeWo cells [3]: did not affect the viability
Transport, basolateral amount of the initial dose (ID) [4]: 6.2%
